This passage reports IC50 results from patent US9295673B2 (dated 2016).

Amino acid sequences for entries named in this document (tags omitted). A change or cut given only in a name is not applied to a line headed by its entry.
UniProt O00329: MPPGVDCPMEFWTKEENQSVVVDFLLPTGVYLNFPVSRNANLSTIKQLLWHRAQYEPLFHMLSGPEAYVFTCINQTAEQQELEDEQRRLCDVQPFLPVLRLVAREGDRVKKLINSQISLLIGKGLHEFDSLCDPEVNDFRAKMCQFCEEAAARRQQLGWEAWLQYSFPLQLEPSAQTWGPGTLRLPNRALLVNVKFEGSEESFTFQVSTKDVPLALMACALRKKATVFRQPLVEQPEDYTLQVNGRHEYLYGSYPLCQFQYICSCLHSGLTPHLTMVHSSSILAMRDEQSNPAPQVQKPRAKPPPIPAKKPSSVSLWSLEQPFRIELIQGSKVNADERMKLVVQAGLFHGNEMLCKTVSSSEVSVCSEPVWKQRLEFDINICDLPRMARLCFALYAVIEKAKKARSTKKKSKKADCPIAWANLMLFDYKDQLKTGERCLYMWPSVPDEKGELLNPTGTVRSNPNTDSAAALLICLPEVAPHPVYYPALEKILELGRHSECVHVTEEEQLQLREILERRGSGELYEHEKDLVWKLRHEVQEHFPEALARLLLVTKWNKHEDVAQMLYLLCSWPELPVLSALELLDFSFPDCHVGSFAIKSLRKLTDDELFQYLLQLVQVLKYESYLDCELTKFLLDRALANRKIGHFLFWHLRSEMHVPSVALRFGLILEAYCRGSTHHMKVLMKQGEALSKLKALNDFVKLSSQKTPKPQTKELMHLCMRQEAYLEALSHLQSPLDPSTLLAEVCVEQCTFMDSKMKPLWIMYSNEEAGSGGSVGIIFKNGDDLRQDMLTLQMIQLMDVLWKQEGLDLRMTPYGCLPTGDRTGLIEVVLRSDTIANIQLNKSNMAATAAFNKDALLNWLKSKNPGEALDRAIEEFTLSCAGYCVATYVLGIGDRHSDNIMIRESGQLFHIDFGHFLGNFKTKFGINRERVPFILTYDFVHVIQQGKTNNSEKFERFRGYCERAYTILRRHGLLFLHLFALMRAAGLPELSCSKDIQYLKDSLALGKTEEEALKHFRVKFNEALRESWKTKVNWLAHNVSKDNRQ

The target of this experiment is PI3K δ (Homo sapiens, UniProt O00329). The experiment is described as follows: PI 3-Kinase (human) HTRF assay, PI3K δ. To be noted: read-out: PI3K δ IC50.

pIC50: −log10 of the molar value.

For orientation: pIC50 means −log10 of the IC50, conventionally taken in molar units. Consider `Nc1nc2cc(-c3ccc4ncc(C(=O)NC5CCC(O)CC5)n4c3)ccc2o1` (stereo not shown) [Compound 143], for which the pIC50 was greater than 7.00.
